Experiment [1] has as its system EGFR (Human), P00533 [T790M/L858R]. The settings on record: h1975.
The test system of experiment [2] is EGFR (human), P00533 [delE746-A750]. The settings on record: hcc827.

Results on three compounds are retold here after the Kinase Knowledgebase extract (Sharma et al. 2016).

What is called GI50 is the concentration giving 50% growth inhibition. `C=CC(=O)Nc1cccc(Nc2nc(Nc3ccc(OC)c(OC)c3OC)ncc2Cl)c1`: the GI50 in experiment [1] and in experiment [2] was 100 to 500 nM in each case.
As for `C=CC(=O)Nc1cccc(Oc2nc(Nc3ccc(OC)cc3OC)ncc2Br)c1`, the GI50 in experiment [2] lay within 100 to 500 nM.
On the same count and under the same terms, the result for `C=CC(=O)Nc1cccc(Oc2nc(Nc3ccc(OC)cc3OC)ncc2Cl)c1` reads 100 to 500 nM.
